This test deals with T1, IGF1R (Homo sapiens, UniProt P08069).
T1 construct: host or cells: U2OS
The experiment in a line: PathHunter IGF1R-PK / SH2-containing protein-EA assay in U2OS cells, agonist mode. To be noted: 3 hours at room temperature. Format: cell-based.

The substance “IGF1: IGF1 (Peprotech, Cat AF-100-11), a known ligand for IGF1R” gave an assay window of 4.4 fold.

The record behind these values is patent US8067155B2, “Receptor tyrosine kinase assays” (DiscoveRx Corporation, priority 2008, dated 2011).
